The record followed here is BindingDB's records for 2542556.

Sequences of proteins named here, by UniProt entry; tags and fusion partners are left off.
UniProt P41143, whole entry: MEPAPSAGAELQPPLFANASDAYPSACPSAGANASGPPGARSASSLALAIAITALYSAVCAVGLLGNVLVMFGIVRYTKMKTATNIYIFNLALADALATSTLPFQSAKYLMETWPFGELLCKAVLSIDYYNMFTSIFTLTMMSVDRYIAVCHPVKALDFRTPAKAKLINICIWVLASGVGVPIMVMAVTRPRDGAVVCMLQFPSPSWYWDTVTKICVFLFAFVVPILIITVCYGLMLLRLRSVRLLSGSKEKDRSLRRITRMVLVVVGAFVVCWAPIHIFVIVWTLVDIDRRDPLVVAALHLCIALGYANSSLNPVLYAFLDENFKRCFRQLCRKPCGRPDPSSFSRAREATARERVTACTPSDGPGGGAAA

As usually defined, the IC50 is the concentration that gives 50% inhibition.

A value given as a limit tells only on which side of the number the result lay.

This experiment has as its target Delta-type opioid receptor (Homo sapiens, UniProt P41143). The experiment in a line: ASSAY_NAME: ChEBML_146883 DESCRIPTION: Inhibitory activity against Opioid receptor delta 1 of guinea pig was determined by using [3H]DADLE radioligand.
In turn, `CN(C(=O)c1ccc(Br)cc1Cl)[C@H]1CCCC[C@@]12CCCN2C` registered an IC50 of 9 µM.
For `CN1CCC[C@@]12CCCC[C@@H]2N(CC1CC1)C(=O)c1ccc(Br)cc1` the value was 6.3 µM; for `CN1CCC[C@@]12CCCC[C@@H]2NC(=O)c1ccc(Cl)cc1`, greater than 10 µM.
Regarding `CC(C)CN(C(=O)c1ccc(Br)cc1)[C@H]1CCCC[C@@]12CCCN2C`, the half-inhibitory concentration (IC50) was greater than 10 µM.
In the case of `CN(C(=O)c1ccc(Br)c(Br)c1)[C@H]1CCCC[C@@]12CCCN2C`, the IC50 was 2.3 µM.
`CN(C(=O)c1ccc(Cl)c(Cl)c1)[C@H]1CCCC[C@@]12CCCN2C` displayed a 50% inhibitory concentration (IC50) greater than 10 µM.
With `CN1CCC[C@@]12CCCC[C@@H]2NC(=O)c1ccc(Cl)c(Cl)c1`, the IC50 was greater than 10 µM.
In turn, `CN1CCC[C@@]12CCCC[C@@H]2NC(=O)c1cccc(Br)c1` gave a half-inhibitory concentration (IC50) greater than 10 µM.
As to `CN(C(=O)c1ccc(C(F)(F)F)cc1)[C@H]1CCCC[C@@]12CCCN2C`, the 50% inhibitory concentration (IC50) is greater than 10 µM.
`CN1CCC[C@@]12CCCC[C@@H]2NC(=O)c1ccc(Br)cc1`: the IC50 is greater than 10 µM.
`CN(C(=O)c1ccc(Br)cc1)[C@H]1CCCC[C@@]12CCCN2C` displayed a half-maximal inhibitory concentration (IC50) greater than 10 µM.
On to `COc1ccc(C(=O)N[C@H]2CCCC[C@@]23CCCN3C)cc1`, for which the IC50 is greater than 10 µM.
`Cc1ccc(C(=O)N(C)[C@H]2CCCC[C@@]23CCCN3C)cc1` displayed an IC50 greater than 10 µM.
Consider `CN1CCC[C@@]12CCCC[C@@H]2NC(=O)c1ccccc1Br`, for which the IC50 was greater than 10 µM.
On to `Cc1cc(Br)ccc1C(=O)N(C)[C@H]1CCCC[C@@]12CCCN2C`, for which the IC50 was greater than 10 µM.
For `CN1CCC[C@@]12CCCC[C@@H]2NC(=O)c1ccc(F)cc1` the value was greater than 10 µM.
